The source of these data is patent US20260191962A1, “NOVEL CHLORIN E6 ANALOGUES” (RMW CHO Group Limited, priority 2022, published 2026).

Where a name gives a salt, the structure may show the parent alone.

A short description of the data set: Stability of chlorin e6 analogue salts in aqueous solution (HPLC purity over time). The class given is physicochemical. Conditions: distilled deionised water, 30° C., air and ambient light not excluded. The procedure:
Reaction solutions were prepared by dissolving 2-3 mg of the respective chlorin e6 analogue salt in 5 mL of distilled deionised water in a 50 mL test tube fitted with a lid. The solutions were stirred in the test tubes at 30° C. Air (oxygen) and ambient light so were not excluded. Sample HPLC analyses were performed at 0.5, 4 or 66 hours (unless indicated otherwise). The aim was to look for degradation over time.
• Mobile Phase: A=0.05% w/v phosphoric acid in distilled water; B=acetonitrile • Injection volume: 5 μL • HPLC run length: 35 minutes • Detection wavelength: 406 nm • Column temperature: 40° C.

Turning to `C=Cc1c(C)c2cc3nc(c(CC(=O)OCC)c4[nH]c(cc5nc(cc1[nH]2)C(C)=C5CC)c(C)c4C(=O)O)[C@@H](CCC(=O)O)[C@@H]3C` [Compound 18, Chlorin e6 15-ethyl Ester mono(N-methyl-D-glucamine) Salt], the “Purity by HPLC after 0.5 hours (%)” value was 93.03% and the “Purity by HPLC after 4 hours (%)” value came to 95.22%. Where the note is “after 4 days”, the “Purity by HPLC (%) after 4 days” value is 94.62 (after %.
On to `C=Cc1c(C)c2cc3nc(c(CC(=O)OCC)c4[nH]c(cc5nc(cc1[nH]2)C(C)=C5CC)c(C)c4C(=O)O)[C@@H](CCC(=O)O)[C@@H]3C` [Compound 16, Chlorin e6 15-ethyl Ester bis(N-methyl-D-glucamine) Salt], for which the “Purity by HPLC after 0.5 hours (%)” value is 96.95% and the “Purity by HPLC after 4 hours (%)” value is 97.15%.
As to `C=Cc1c(C)c2cc3nc(c(CC(=O)OCC)c4[nH]c(cc5nc(cc1[nH]2)C(C)=C5CC)c(C)c4C(=O)O)[C@@H](CCC(=O)O)[C@@H]3C` [Compound 17, Chlorin e6 15-ethyl Ester Disodium Salt], where the note is “Disodium Salt”, the “Purity by HPLC after 4 hours (%)” value is 77.98%.
